Reference: US5434132A, “Neuropeptide antagonists” (Imperial Cancer Research Technology, Ltd., priority 1988, dated 1995)
Non-standard residues stand in square brackets, D forms with d. Residues, ends and D or L forms follow the SMILES beside them.

Columns and labels:
[1] = system: small cell lung cancer (SCLC) cell lines; assay: Growth in vitro of small cell lung cancer (SCLC) cell lines; conditions: active in 6 of 6 cell lines tested: H69, H128, H209, H345, H510A and UCH25
SCLC cell lines = conditions: 20 μM; 3 of 3 lines tested (H69, H345, H510A)

CC(C)C[C@H](NC(=O)[C@H](CC(C)C)NC(=O)[C@@H](Cc1c[nH]c2ccccc12)NC(=O)[C@H](Cc1ccccc1)NC(=O)[C@@H](Cc1c[nH]c2ccccc12)NC(=O)[C@H](CCC(N)=O)NC(=O)[C@@H](Cc1ccccc1)NC(=O)[C@@H]1CCCN1C(=O)[C@H](CCCCN)NC(=O)[C@@H]1CCCN1C(=O)[C@H](N)CCCNC(=N)N)C(N)=O [antagonist D, D-Arg-Pro-Lys-Pro-D-Phe-Gln-D-Trp-Phe-D-Trp-Leu-Leu-NH2] (H-[dR]PKP[dF]Q[dW]F[dW]LL-NH2) was tested. Which “concentration that abolishes cell growth” value [1] did it give?
The value was 40 to 50 µM.

What about the “block of intracellular [Ca2+] responses to bradykinin, GRP and vasopressin” value (SCLC cell lines) of the same compound?
Its value is “blocked”.
